Sequences of proteins named here, by UniProt entry; tags and fusion partners are left off. Residues count along the entry.
UniProt P46937, 2-268: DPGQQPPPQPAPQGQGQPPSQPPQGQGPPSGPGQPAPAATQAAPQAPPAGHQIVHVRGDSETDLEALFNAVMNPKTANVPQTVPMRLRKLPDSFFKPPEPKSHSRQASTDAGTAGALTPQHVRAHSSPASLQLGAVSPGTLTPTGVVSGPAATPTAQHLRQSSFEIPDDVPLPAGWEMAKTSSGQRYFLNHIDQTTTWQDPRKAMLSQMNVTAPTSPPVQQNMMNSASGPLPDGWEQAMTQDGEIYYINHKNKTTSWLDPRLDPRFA

In PMC10605449 (Biosensors, 2023):

Tests used:
[1] = target: T1, Cellular biotinylated Yes-associated protein, His6-YAP(2-268)-AviTag (UniProt P46937-2 2-268, biotin on the AviTag (BirA, in the cells)); experiment: SPR; as a2, but TEAD1 incubated for 18 h at 30 °C with saturating 30 µM TED-347 (small molecule, lipidation pocket) before injection over YAP(2-268) captured from lysate; 15 °C; details: one partner purified
T1 construct: Yes-associated protein (YAP), residues 2-268; Captured from the lysate on a neutravidin-coated CM5 chip by the biotinylated AviTag; also called cellular biotinylated YAP(2-268); source: E. coli BL21 Star (DE3) pRARE2, co-expressed with BirA-FLAG and D-biotin, in cleared lysate (desalted, not purified); not shown: His6, N-terminal, kept; AviTag, C-terminal, kept

[2] = target: T1, Cellular biotinylated Yes-associated …; experiment: SPR; cellular biotinylated YAP(2-268) captured from soluble cell lysate (200 RU) on neutravidin-coated CM5 chip; TEAD1 apo-form injected, 10 concentrations, 2-fold series from 3 µM; 20 mM Tris-HCl pH 7.4, 150 mM NaCl, 5 mM MgCl2, 0.1 mM EGTA, 0.05% CHAPS; 15 °C; 1:1 Langmuir fit; details: one partner purified

Kd [1]: 300 nM
koff [1]: 0.34 s⁻¹
kon [1]: 1.2e+06 M⁻¹ s⁻¹
Kd [2]: 45 nM
koff [2]: 0.08 s⁻¹
kon [2]: 1.8e+06 M⁻¹ s⁻¹
B1: Transcriptional enhancer factor TEF (TEAD1), TEAD1(209-426) (domain or fragment, UniProt P28347 209-426, looked up)
chain: RSIGTTKLRLVEFSAFLEQQRDPDSYNKHLFVHIGHANHSYSDPLLESVDIRQIYDKFPEKKGGLKELFGKGPQNAFFLVKFWADLNCNIQDDAGAFYGVTSQYESSENMTVTCSTKVCSFGKQVVEKVETEYARFENGRFVYRINRSPMCEYMINFIHKLKHLPEKYMMNSVLENFTILLVVTNRDTQETLLCMACVFEVSNSEHGAQHHIYRLVKD
notes: TEAD1, residues 209-426; also called TEAD1(209-436); TEAD1 apo-form
